For data set [1], the system named is C57/Bl6 mice.

Data on one compound can be found in PMC6102074 (European journal of medicinal chemistry, 2018).

By Cmax is commonly meant the peak of the concentration-time curve. Take `CC(C)Oc1ccccc1C(=O)Nc1ccccc1C(=O)Nc1cccc(S(=O)(=O)C(F)(F)F)c1` [Compound 65, 2-Isopropoxy-N-(2-(3-(trifluoromethylsulfonyl)phenylcarbamoyl)phenyl)benzamide]: the Cmax (PO 30 mg/kg, plasma, male C57/Bl6 mice) came out at 0.30 ng/mL. Further, the “toxicity or abnormal behavior” value (mice, IV and PO PK study) was “no toxicity or abnormal behavior were detected”. Besides, in data set [1] (PO, 90, 300 and 3000 mg/kg, 5 day with 5 day post-dosing observation, C57/Bl6 mice), the “mortality in maximum tolerated dose study” value is on record as “no mortality observed”. In addition, the abnormalities post-necropsy entry in data set [1] (any of the in vivo mammalian studies) is recorded as “No obvious abnormalities were noted”.
